This data set has as its target CYP1A2 (Homo sapiens, UniProt P05177). Particulars: 8HUM, mouse, microsomes, 3.33 μM, pH 7.4.

By UniProt entry, the sequences of proteins in these tests, tags left out.
UniProt P05177, whole entry: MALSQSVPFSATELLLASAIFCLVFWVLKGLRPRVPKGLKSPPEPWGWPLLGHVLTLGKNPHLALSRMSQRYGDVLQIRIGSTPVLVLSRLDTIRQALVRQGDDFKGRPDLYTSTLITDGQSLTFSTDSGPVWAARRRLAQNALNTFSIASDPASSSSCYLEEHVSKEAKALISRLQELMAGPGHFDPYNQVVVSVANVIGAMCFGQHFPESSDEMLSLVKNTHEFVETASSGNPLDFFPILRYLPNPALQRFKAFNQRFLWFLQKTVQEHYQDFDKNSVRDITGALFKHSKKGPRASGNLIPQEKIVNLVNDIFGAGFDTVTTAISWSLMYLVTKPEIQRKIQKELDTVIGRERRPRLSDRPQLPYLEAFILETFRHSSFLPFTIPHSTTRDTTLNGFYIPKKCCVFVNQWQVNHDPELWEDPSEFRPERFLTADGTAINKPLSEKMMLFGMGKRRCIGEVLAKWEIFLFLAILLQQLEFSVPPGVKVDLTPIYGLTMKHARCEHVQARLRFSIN

SMILES strings stand for the structures.

In the case of `O=c1cc(-c2ccccc2)oc2c1ccc1ccccc12` [α-naphthoflavone], the “Inhibition of 7-methoxyresorufin metabolism” value came to 93%.

For the origin of these results see article PMC6505380, “An Extensively Humanized Mouse Model to Predict Pathways of Drug Disposition and Drug/Drug Interactions, and to Facilitate Design of Clinical Trials” (Drug Metabolism and Disposition, 2019).
